Literature values, collected in patent US20230102483A1, “[6R]-MTHF IN 5-FU BASED CHEMOTHERAPY OF LEFT-SIDED COLORECTAL CANCER” (Isofol Medical AB, priority 2021, published 2023).
Entries after “also recorded” stand apart in the source; their conditions may differ.

Conditions: occurring in 10-30% or more of all treated patients; cited from earlier work

## cetuximab: EGFR monoclonal antibody
  common side effects: Allergic reactions; also recorded: Heart attack; also recorded: Abnormal hair growth; also recorded: Swelling of skin around nails; also recorded: Blistering of the skin or mucous; also recorded: Skin changes such as acne-like; also recorded: Reduced levels of magnesium in; also recorded: Diarrhoea
